Reference: patent US7015211B2 (Yale University, priority 2003, dated 2006)

Chains of the proteins cited; added tags and fusions are not shown.
UniProt P06211, whole entry: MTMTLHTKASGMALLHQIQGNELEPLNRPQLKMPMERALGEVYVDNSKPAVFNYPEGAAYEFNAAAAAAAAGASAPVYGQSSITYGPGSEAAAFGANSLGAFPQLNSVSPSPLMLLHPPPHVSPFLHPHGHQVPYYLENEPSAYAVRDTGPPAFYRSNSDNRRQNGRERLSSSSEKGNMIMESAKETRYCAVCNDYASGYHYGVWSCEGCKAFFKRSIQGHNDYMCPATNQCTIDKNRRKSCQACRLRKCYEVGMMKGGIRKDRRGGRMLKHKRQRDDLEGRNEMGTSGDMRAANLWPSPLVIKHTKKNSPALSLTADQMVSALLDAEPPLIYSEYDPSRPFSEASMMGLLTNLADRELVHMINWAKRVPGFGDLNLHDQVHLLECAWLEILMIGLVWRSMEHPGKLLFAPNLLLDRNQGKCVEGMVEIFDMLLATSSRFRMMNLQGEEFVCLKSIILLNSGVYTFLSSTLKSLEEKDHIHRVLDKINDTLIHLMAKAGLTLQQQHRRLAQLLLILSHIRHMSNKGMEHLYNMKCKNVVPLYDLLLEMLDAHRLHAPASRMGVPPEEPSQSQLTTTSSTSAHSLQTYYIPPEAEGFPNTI

Molecular target: ER (ERα) in uterine cytosol (Rattus norvegicus, UniProt P06211)
Details: relative binding affinity, E2 = 100, 1 nM [3H]E2, ± SD

Estrogen Receptor (RBA): 8 ± 3
Substance: 2′-Fluoroethyl(3,17β-dihydroxyestra-1,3,5(10)-trien-15α-yl)formate [E15-1,2F1]
